# Reference: patent publication US20210393810A1, “DIHYDRAZONE COMPOUNDS HAVING HIGH AFFINITY TO A BETA PROTEIN AND TAU PROTEIN, DERIVATIVES THEREOF AND USE THEREOF” (HTA CO., LTD., priority 2019, published 2021)
# Amino acid sequences for entries named in this document (tags omitted). Residues count along the entry.
# UniProt P05067, 672-713 limits assumed: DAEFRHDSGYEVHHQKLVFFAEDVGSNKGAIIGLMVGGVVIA
# Molecular target: Aβ1-42 aggregates (Homo sapiens, UniProt P05067)
# Assay: Competitive binding experiment with [125I]IMPY
# Settings: competition with [125I]IMPY, Aβ1-42, 37° C., 3 hours
# Experimental: (1) formulating a 0.1% BSA solution with pH=7.4;
# (2) preparing a radioligand [125I] IMPY according to the known methods; formulating [125I] IMPY into a solution of 60000-100000 cpm/100 μL for later use;
# (3) formulating the compound to be tested into a 10^−5 to 10^−11 mol/L serially diluted ethanol solution;
# (4) preparing Aβ1-42 proteins according to the known methods, and diluting it into an aqueous solution of about 30 nM;
# (5) soaking a glass fiber filter membrane in PBS solution containing 0.1% polyethyleneimine for 30 minutes;
# (6) adding 100 μL of the test compound solutions with different concentrations and 100 μL of [125I] IMPY solution, 700 μL of BSA solution and 100 μL of Aβ1-42 solution into a 12 mm×75 mm borosilicate glass tube, and vortexing;
# (7) incubating with shaking in a constant temperature water bath at 37° C. for 3 hours;
# (8) collecting the reaction solution by a multi-head cell collector, and rinsing the reaction solution for three times with 10% ethanol solution;
# (9) measuring and counting with a gamma counter;
# (10) analyzing and processing data using GraphPrad Prism 5.01 to obtain an affinity constant Ki.
# Activity between some compounds and Aβ1-42 aggregates was quantitatively determined by the method.
smiles,measurement,value
CN(C)c1ccc(/C=N/N=C/c2ccc(N(C)C)nc2)cn1,Ki,6.46 nM
